The values that follow are results of earlier work, collected in patent US20260053724A1, “ORAL CARE COMPOSITIONS” (Soluta Consult GmbH, priority 2022, published 2026).

For the series the following is noted: water at 20° C., 1013 mbar and pH 7; not SO means less than 0.0001% (w/w).

For the substance calcium hydroxyapatite, the “solubility in water (SO)” value is listed as “not soluble in water”.
